## Yeast mating assay 1: variants of the scFv Ab-14

Antigen: PDVDLGDISGINAS, a 14-residue peptide of the SARS-CoV-2 spike HR2 region.

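In library AAYL50, one, two or three CDR residues were substituted; doubles and triples were drawn at random. Affinity was read by AlphaSeq, a pooled yeast mating assay with surface-displayed partners. Pairs that bind mate more often; barcode pairs of the diploids are counted by sequencing. The ratio of observed to expected reads was calibrated, replicate by replicate, on BCL2-family standards whose Kd was known from biolayer interferometry. Each pool was mated in three replicate cultures.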

Each scFv is VH, three GGGGS repeats, VL, as in the parent Ab-14, and differs from it in the CDRs of the light chain only.
VH: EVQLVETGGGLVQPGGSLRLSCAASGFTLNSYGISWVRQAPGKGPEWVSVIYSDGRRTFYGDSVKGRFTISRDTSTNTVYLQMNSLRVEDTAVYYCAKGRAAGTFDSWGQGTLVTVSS
VL: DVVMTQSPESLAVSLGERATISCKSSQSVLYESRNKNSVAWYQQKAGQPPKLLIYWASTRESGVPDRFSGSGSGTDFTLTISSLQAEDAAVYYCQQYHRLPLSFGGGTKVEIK

Each variant is given by its three light chain CDRs, as the data file delimits them; those of the parent are KSSQSVLYESRNKNSVA, WASTRES, QQYHRLPLS.
Numbers give log10(Kd / nM), so 0 is 1 nM and 3 is 1 µM. Smaller is tighter.
Where no diploid with the target was found in that replicate, the entry reads "nd": below detection, most likely a poor binder, though not proof of it.

| # | CDR-L1 | CDR-L2 | CDR-L3 | replicates, log10 nM | empty controls |
|---|---|---|---|---|---|
| 1 | KSSQSVLYESRNANSEA | WASTREN | QQYHRLPLS | nd nd nd | 1/9 (2.72) |
| 2 | KSSQQVLYECRNKNSVA | WACTRES | QQYHRLPLS | nd nd nd | 0/9 |
| 3 | KLSQSVLYESRNKQSVA | WASTRES | QQYHRLPLS | nd nd nd | 0/9 |
| 4 | KSSQSVLSESRNKNSVA | WASTRES | QFYHRLPLS | 2.78 2.53 2.63 | 7/9 (4.37) |
| 5 | KSRQSVLYESRNKNSVA | WASTRES | QQHHRLPLK | nd 1.97 nd | 2/9 (3.33) |
| 6 | KSSFSVMYESRNKNSVA | WRSTRES | QQYHRLPLS | 6.01 2.72 nd | 5/9 (4.37) |
| 7 | KSSQSVLYDSRNKNSVA | WSSTRES | KQYHRLPLS | nd nd nd | 2/9 (4.41) |
| 8 | KSSQSVLYQSCNKNSVA | FASTRES | QQYHRLPLS | 1.59 1.69 1.69 | 1/9 (5.35) |
| 9 | KSSQSVLYESRNKPSYA | WASTRES | QQYHRLRLS | 3.85 nd nd | 1/9 (4.15) |
| 10 | KSSQSVLYESRNKNSVA | WASTMYW | QQYHRLPLS | 4.57 4.30 4.72 | 0/9 |
| 11 | KSSQSVLYESREKNSVA | LASTRNS | QQYHRLPLS | 1.65 1.56 1.69 | 2/9 (4.38) |
| 12 | KGEQSVLYESRNKNSVA | WAWTRES | QQYHRLPLS | nd nd nd | 0/9 |
| 13 | PSSQSVLYESRNKNSVA | WASTRES | QQLHRLQLS | nd nd 3.31 | 0/9 |
| 14 | KSIQSVLYESRNKNSVA | WASTRES | QQYHRLPLS | 0.94 1.36 1.29 | 1/9 (2.27) |
| 15 | KCSQSVLYESRHKNSVA | WASTRES | QGYHRLPLS | 1.91 1.76 1.88 | 3/9 (5.12) |
| 16 | KSTQSVLYESRNKNSVA | WASTRES | QQYHRLPLS | 0.69 1.10 1.06 | 0/9 |
| 17 | KSSQSVNYESRNKNSVA | WASTAES | QQYHRLPTS | 3.90 nd 4.74 | 1/9 (3.12) |
| 18 | KSSQEVLYEERNKNSVA | WASTLES | QQYHRLPLS | 4.08 3.99 4.10 | 5/9 (4.54) |
| 19 | KSSQSVLYESRNKNSVA | WCYTQES | QQYHRLPLS | nd nd nd | 1/9 (2.85) |
| 20 | TSSQSVLYESRNKNSVA | WASTRPS | QQYSRLPLS | 2.23 1.88 2.04 | 0/9 |
| 21 | VSSQSVLYESRNKNSCA | WASTRES | QQYHRLPLS | nd nd 4.93 | 1/9 (4.06) |
| 22 | KSSQSVLMESRNKNSMA | WASTRQS | QQYHRLPLS | 1.11 1.57 1.66 | 1/9 (1.75) |
| 23 | MSSQSVLYESRNKNSVA | WARTRES | QQPHRLPLS | nd nd nd | 1/9 (3.69) |
| 24 | KSSQSVLYENRNKNSGA | FASTRES | QQYHRLPLS | nd 4.13 nd | 1/9 (4.19) |
| 25 | KISQSHLYESRNKNSVA | WDSTRES | QQYHRLPLS | 1.56 2.01 2.41 | 0/9 |
| 26 | KSSQSVLYESRNCLSVA | WASVRES | QQYHRLPLS | 1.86 2.39 1.43 | 0/9 |
| 27 | KSSQSVEYEMRNKNSVA | WASTRES | QQGHRLPLS | nd nd 5.57 | 5/9 (4.27) |
| 28 | KSSQSVCYESRNSNSVA | WASTRES | QQYHWLPLS | 2.49 2.40 1.96 | 2/9 (4.51) |
| 29 | KSSQSVLDESRNKNSLA | WASTRES | QQYHRLPPS | 0.76 0.91 0.72 | 1/9 (2.91) |
| 30 | KSSQSVLYESRCKNSVA | WASTRES | KQYHRLGLS | nd nd nd | 2/9 (3.54) |
| 31 | NSSQSVLYECRNKNSVA | WASERES | QQYHRLPLS | 5.27 4.11 nd | 5/9 (4.62) |
| 32 | KSSQSVLYENRNKHSVA | WASLRES | QQYHRLPLS | nd nd nd | 0/9 |
| 33 | KSSQSVLYSSRNKNSVA | WASTRAS | QQYHRLDLS | 0.86 0.99 0.86 | 4/9 (4.47) |
| 34 | KSSQSVYYESRNKNSVA | WASTKAS | QQYHRLPLS | 0.78 0.87 1.08 | 0/9 |
| 35 | KSSQSVLYESRAKNSVA | AASTRES | QQYHRLPLS | 0.10 0.40 0.22 | 2/9 (4.18) |
| 36 | YSSQSVLYESMNKNSVA | WAETRES | QQYHRLPLS | 0.84 1.07 0.89 | 4/9 (4.14) |
| 37 | KSSQSVSYESRNKNCVA | WASTRES | QQYHPLPLS | nd 3.20 nd | 3/9 (4.34) |
| 38 | KSSQSVLYESRNKNSVA | CASTRES | QQYHRLPVY | 1.37 1.39 2.44 | 0/9 |
| 39 | KSSQSVLYESRNKNSVA | WPSTRES | QQYHRLFLS | nd nd nd | 0/9 |
| 40 | KSSQSTLYESRNKNSVK | WALTRES | QQYHRLPLS | nd nd nd | 1/9 (4.97) |

Extract of 4 entries:

{"CDR-L1": "KSSFSVMYESRNKNSVA", "CDR-L2": "WRSTRES", "CDR-L3": "QQYHRLPLS", "replicates, log10 nM": "6.01 2.72 nd", "empty controls": "5/9 (4.37)"}
{"CDR-L1": "KSSQSVLYESREKNSVA", "CDR-L2": "LASTRNS", "CDR-L3": "QQYHRLPLS", "replicates, log10 nM": "1.65 1.56 1.69", "empty controls": "2/9 (4.38)"}
{"CDR-L1": "NSSQSVLYECRNKNSVA", "CDR-L2": "WASERES", "CDR-L3": "QQYHRLPLS", "replicates, log10 nM": "5.27 4.11 nd", "empty controls": "5/9 (4.62)"}
{"CDR-L1": "KSTQSVLYESRNKNSVA", "CDR-L2": "WASTRES", "CDR-L3": "QQYHRLPLS", "replicates, log10 nM": "0.69 1.10 1.06", "empty controls": "0/9"}

Empty control strains, which show no peptide, gave a signal in 18% of pairings with library AAYL50; the median was 4.19 and 95% of these signals were weaker than 2.99. No background was subtracted. Also given: how often the same scFv was detected with the empty control strains, with their mean in brackets.

Reference: Engelhart et al. 2022, doi:10.1038/s41597-022-01779-4. File: FLAb, binding data.